Source: US9126948B2, “Pyrimidine-4,6-diamine derivatives as PI3K inhibitors” (Incyte Holdings Corporation, priority 2011, dated 2015)

Protein sequences, listed by entry. Tags and fused reporters are not part of them. Lines headed by an entry give the natural chain unless they say otherwise; changes in a name come on top.
UniProt O00329, whole entry, species assumed: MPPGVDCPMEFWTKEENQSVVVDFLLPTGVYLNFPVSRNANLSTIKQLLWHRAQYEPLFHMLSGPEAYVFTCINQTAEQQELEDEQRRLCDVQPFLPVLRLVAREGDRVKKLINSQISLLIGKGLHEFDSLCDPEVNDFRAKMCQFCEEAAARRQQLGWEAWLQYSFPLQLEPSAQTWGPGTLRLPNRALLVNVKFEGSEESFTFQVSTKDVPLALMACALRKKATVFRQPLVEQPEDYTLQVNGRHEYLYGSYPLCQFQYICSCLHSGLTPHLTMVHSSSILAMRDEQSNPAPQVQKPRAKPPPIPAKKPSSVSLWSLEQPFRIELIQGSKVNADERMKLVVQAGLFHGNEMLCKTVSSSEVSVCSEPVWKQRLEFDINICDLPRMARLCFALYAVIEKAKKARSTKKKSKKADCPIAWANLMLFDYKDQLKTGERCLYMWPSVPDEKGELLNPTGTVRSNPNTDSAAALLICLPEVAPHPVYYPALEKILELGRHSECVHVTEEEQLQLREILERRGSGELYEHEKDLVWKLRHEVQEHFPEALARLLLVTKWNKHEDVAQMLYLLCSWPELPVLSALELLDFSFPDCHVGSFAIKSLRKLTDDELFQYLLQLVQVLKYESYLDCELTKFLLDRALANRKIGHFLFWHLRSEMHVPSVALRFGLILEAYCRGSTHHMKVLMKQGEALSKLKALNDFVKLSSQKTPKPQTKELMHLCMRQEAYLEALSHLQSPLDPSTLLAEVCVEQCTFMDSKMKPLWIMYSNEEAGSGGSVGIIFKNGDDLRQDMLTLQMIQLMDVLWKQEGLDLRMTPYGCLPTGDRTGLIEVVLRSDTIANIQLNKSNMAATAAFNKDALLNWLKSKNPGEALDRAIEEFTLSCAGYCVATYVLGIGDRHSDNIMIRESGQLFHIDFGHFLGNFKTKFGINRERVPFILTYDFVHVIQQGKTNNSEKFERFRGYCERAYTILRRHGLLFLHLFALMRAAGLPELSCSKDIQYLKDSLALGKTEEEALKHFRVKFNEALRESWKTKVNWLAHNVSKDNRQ

Molecular target: PI3Kδ (p110δ/p85α) (Homo sapiens (Human), UniProt O00329)
Assay: PI3Kδ Scintillation Proximity Assay
Format: biochemical
Details: 20 μM PIP2, 20 μM ATP, 4 nM PI3Kδ, 210 min; read-out: PI3Kδ SPA IC50
Excerpt: [γ-^33P]ATP (10 mCi/mL) was purchased from Perkin-Elmer (Waltham, Mass.). Lipid kinase substrate, D-myo-Phosphatidylinositol 4,5-bisphosphate (PtdIns(4,5)P2)D(+)-sn-1,2-di-O-octanoylglyceryl, 3-O-phospho linked (PIP2), CAS 204858-53-7, was purchased from Echelon Biosciences (Salt Lake City, Utah). PI3Kδ (p110δ/p85α) was purchased from Millipore (Bedford, Mass.). ATP, MgCl2, DTT, EDTA, MOPS and CHAPS were purchased from Sigma-Aldrich (St. Louis, Mo.). Wheat Germ Agglutinin (WGA) YSi SPA Scintillation Beads was purchased from GE healthcare life sciences (Piscataway, N.J.).
The kinase reaction was conducted in polystyrene 384-well matrix white plate from Thermo Fisher Scientific in a final volume of 25 μL. Inhibitors were first diluted serially in DMSO and added to the plate wells before the addition of other reaction components. The final concentration of DMSO in the assay was 0.5%. The PI3K assays were carried out at room temperature in 20 mM MOPS, pH 6.7, 10 mM MgCl2, 5 mM DTT and CHAPS 0.03%. Reactions were initiated by the addition of ATP, the final reaction mixture consisted of 20 μM PIP2, 20 μM ATP, 0.2 μCi [γ-^33P]ATP, 4 nM PI3Kδ. […] After the plate sealing, plates were shaken overnight at room temperature and centrifuged at 1800 rpm for 10 minutes, the radioactivity of the product was determined by scintillation counting on Topcount (Perkin-Elmer). […]

Question: With `COc1c(C(C)Nc2ncnc(N)c2C#N)cc(Cl)c(C)c1-c1cncc(S(C)(=O)=O)c1` (stereo not shown) [Example 1, 4-Amino-6-[(1-{5-chloro-2-methoxy-4-methyl-3-[5-(methylsulfonyl)pyridin-3-yl]phenyl}ethyl)amino]pyrimidine-5-carbonitrile trifluoroacetic acid salt] as the compound, how does the pIC50 read?
Answer: The pIC50 was over 7.70.

pIC50: −log10 of the molar value. Structures can show the parent of a compound that is named as a salt.
